In publication doi:10.1101/2024.04.25.591105 one finds EC50 of the stabiliser 163, EC50 of the stabiliser FC-A and EC50 of the stabiliser FC-NAc data, which are given here for one substance.

Amino acid sequences for entries named in this document (tags omitted). A change or cut given only in a name is not applied to a line headed by its entry.
UniProt P31947: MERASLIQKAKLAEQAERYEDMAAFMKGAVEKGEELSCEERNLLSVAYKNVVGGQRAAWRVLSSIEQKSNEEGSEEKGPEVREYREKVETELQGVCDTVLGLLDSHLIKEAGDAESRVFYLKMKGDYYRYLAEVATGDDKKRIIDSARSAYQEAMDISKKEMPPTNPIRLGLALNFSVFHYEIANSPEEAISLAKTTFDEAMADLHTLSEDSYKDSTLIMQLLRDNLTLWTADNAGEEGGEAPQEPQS

The test has as its target FAM-labeled ERα peptide, 5-FAM-AEGFPA{pT}V-COOH (8mer). In words: fluorescence polarisation.

For the substance “14-3-3σ FL protein (from UniProt P31947 1-248) (natural protein)”, the EC50 of the stabiliser 163 came to 4 µM, the EC50 of the stabiliser FC-A came to 421 nM and the EC50 of the stabiliser FC-NAc came out at 15 nM.
